Test results published in US20100137222A1, “Basic Peptides and Their Use as Combined Antibacterial-Antifungine Agents” (NOVABIOTICS LIMITED, priority 2007, published 2010).
Marks after values point to notes of the source that are not given here.

Tests used:
M. furfur DSM6170 = type: cell-based, Malassezia furfur
Procedure: Broth Dilution Antifungal Susceptibility Testing
The sensitivity of relevant fungal strains to peptides was determined using Clinical Laboratory Standard Institute (CLSI; formerly NCCLS) Approved Standards. Yeast susceptibility was tested using “Reference Method for Broth Dilution Antifungal Susceptibility Testing of Yeasts; Approved Standard—Second Edition M27-A”.

P. acnes DSM1897 = type: cell-based, Propionibacterium acnes
Procedure: Broth Dilution Antibacterial Susceptibility Testing
The sensitivity of relevant bacterial strains to peptides was determined using Clinical Laboratory Standard Institute (CLSI; formerly NCCLS) Approved Standards. Bacterial susceptibility was tested using “Methods for Dilution Antimicrobial Susceptibility Tests for Bacteria That Grow […]; Approved Standard—Seventh Edition M7-A7”

SMILES	Antimicrobial Activity (MIC) M. furfur DSM6170 (M. furfur DSM6170)	Antimicrobial Activity (MIC) P. acnes DSM1897 (P. acnes DSM1897)
N=C(N)NCCC[C@H](NC(=O)[C@H](CCCNC(=N)N)NC(=O)[C@H](CCCNC(=N)N)NC(=O)[C@H](CCCNC(=N)N)NC(=O)[C@H](CCCNC(=N)N)NC(=O)[C@H](CCCNC(=N)N)NC(=O)[C@H](CCCNC(=N)N)NC(=O)[C@H](CCCNC(=N)N)NC(=O)[C@H](CCCNC(=N)N)NC(=O)[C@H](CCCNC(=N)N)NC(=O)[C@H](CCCNC(=N)N)NC(=O)[C@H](CCCNC(=N)N)NC(=O)[C@H](CCCNC(=N)N)NC(=O)[C@H](CCCNC(=N)N)NC(=O)[C@@H](N)CCCNC(=N)N)C(=O)O [NP319, RRRRRRRRRRRRRRR]	0.25 mM	<0.0156 mM
NCCCC[C@H](NC(=O)[C@H](CCCCN)NC(=O)[C@@H](N)CCCCN)C(=O)O [NP342, KKK]	1* mM	>10* mM
